Source: PubChem BioAssay AID493222 (Johns Hopkins Ion Channel Center, 2011)
This is a selection; strong and weak results do not stand in their true shares. Active and inactive are the calls of the source.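 Rule for the calls: active = mean of duplicate membrane potential ratios lying over 3 SD above or below the buffer control mean, so actives fall on both sides; inactive = the rest.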

Assay: membrane potential effects in parental HEK293, counter-screen for CHT inhibitor project, cell-based, membrane potential dye (AID 493222)
Settings: choline response, at 10 µM

**Q.** Which ratio readout does the source give for `CCc1nc2c(n1)c1c(non1O)c1c2no[n+]1[O-]` here?
**A.** inactive: 0

**Q.** Which ratio readout does the source give for `NC(=O)c1cc([N+](=O)[O-])cc([N+](=O)[O-])c1N` here?
**A.** inactive: 0
